Measured values: patent US7511144B2, “Reverse hydroxamic acid derivatives” (Kaken Pharmaceutical Co., Ltd., priority 2001, dated 2009)

By UniProt entry, the sequences of proteins in these tests, tags left out. Residues count along the entry.
UniProt P78536, 215-824 limits assumed: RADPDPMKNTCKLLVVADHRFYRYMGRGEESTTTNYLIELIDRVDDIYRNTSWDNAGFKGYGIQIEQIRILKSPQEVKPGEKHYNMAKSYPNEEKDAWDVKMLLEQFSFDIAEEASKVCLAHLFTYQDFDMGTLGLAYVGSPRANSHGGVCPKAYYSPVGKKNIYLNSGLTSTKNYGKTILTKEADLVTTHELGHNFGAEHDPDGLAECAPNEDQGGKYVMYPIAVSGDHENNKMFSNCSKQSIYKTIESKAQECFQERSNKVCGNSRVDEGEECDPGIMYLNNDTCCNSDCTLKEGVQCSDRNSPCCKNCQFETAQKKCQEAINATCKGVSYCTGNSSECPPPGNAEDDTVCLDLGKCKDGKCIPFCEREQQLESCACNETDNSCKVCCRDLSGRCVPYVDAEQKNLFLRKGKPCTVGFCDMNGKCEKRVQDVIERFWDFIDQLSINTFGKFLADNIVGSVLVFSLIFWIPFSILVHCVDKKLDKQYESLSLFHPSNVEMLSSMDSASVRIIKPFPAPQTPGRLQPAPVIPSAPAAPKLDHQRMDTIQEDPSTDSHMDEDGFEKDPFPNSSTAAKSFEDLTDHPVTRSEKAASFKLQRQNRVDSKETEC
UniProt P03956, 100-469 limits assumed: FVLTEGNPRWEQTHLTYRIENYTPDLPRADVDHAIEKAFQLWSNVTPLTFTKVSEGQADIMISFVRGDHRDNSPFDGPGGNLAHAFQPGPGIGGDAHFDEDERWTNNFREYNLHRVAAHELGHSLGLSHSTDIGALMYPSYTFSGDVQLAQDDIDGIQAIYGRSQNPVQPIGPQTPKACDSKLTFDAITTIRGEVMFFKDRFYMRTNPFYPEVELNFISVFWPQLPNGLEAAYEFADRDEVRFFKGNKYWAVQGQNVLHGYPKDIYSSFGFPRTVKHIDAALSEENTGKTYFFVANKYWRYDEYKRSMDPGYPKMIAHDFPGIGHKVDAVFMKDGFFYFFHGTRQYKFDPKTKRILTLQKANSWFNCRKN
UniProt P08253, 110-660 limits assumed: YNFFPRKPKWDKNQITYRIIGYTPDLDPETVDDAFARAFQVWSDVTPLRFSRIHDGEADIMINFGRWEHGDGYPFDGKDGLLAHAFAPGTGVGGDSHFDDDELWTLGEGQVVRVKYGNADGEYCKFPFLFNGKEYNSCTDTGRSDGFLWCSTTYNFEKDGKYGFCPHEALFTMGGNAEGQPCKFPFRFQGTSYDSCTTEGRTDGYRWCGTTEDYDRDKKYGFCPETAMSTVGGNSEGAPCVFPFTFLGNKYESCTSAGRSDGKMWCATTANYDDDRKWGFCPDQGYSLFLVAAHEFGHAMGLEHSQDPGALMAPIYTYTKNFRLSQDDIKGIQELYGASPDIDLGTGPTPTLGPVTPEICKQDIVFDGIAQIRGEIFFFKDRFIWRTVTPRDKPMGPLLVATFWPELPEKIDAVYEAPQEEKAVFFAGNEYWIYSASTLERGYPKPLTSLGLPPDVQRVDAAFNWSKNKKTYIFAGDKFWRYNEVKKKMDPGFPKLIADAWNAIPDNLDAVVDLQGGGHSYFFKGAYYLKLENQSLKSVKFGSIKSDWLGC
UniProt P08254, 100-272 limits assumed: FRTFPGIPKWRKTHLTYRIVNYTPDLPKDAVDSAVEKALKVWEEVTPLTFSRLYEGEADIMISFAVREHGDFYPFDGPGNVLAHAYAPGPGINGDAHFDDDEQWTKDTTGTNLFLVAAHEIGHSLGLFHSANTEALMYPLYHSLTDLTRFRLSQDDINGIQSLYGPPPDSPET
UniProt P22894, 101-467 limits assumed: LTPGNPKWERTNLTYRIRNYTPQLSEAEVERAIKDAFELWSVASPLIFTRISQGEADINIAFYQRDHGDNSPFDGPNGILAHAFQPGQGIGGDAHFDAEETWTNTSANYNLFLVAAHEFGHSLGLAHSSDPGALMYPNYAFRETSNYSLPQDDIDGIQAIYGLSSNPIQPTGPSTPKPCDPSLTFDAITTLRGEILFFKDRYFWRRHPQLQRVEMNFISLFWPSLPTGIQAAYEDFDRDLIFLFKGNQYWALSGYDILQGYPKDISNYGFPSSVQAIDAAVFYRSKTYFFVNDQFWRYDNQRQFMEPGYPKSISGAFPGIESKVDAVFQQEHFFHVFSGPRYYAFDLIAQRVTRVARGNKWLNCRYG
UniProt P14780, 107-707 limits assumed: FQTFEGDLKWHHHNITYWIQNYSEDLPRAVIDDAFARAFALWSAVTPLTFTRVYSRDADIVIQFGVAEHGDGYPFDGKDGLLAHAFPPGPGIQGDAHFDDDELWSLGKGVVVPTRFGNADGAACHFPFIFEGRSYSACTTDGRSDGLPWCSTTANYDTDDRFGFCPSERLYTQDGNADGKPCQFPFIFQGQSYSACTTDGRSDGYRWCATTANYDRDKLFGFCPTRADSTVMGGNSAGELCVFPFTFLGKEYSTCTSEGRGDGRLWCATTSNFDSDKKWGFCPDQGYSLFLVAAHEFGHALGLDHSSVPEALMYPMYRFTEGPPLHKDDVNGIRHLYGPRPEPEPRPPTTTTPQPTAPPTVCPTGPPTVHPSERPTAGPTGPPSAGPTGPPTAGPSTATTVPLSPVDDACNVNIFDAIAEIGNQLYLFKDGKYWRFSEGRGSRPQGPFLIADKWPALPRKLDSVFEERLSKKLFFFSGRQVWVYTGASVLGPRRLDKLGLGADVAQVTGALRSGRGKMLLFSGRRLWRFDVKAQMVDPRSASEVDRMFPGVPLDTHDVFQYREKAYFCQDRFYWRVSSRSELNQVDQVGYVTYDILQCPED
UniProt Q9ULZ9, 126-300 limits assumed: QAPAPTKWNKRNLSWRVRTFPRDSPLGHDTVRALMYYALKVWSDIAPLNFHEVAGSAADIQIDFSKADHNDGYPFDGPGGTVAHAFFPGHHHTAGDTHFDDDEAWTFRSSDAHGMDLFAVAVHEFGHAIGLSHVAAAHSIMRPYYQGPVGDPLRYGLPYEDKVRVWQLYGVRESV

Columns and labels:
TACE = TACE (Homo sapiens, UniProt P78536); assay: TACE inhibition experiment (in vitro); format: biochemical; settings: read-out: IC50 value TACE; concentration required for 50% inhibition of enzyme activity
Human MMP1 = Human MMP1 (Homo sapiens, UniProt P03956); assay: MMP1 inhibition experiment; settings: read-out: IC50 value MMP-1; concentration required for 50% inhibition of enzyme activity
Human MMP2 = Human MMP2 (Homo sapiens, UniProt P08253); assay: MMP2 inhibition experiment; settings: read-out: IC50 value MMP-2; concentration required for 50% inhibition of enzyme activity
Human MMP3 = Human MMP3 (Homo sapiens, UniProt P08254); assay: MMP3 inhibition experiment; settings: read-out: IC50 value MMP-3; concentration required for 50% inhibition of enzyme activity
Human MMP8 = Human MMP8 (Homo sapiens, UniProt P22894); assay: MMP8 inhibition experiment; settings: read-out: IC50 value MMP-8; concentration required for 50% inhibition of enzyme activity
Human MMP9 = Human MMP9 (Homo sapiens, UniProt P14780); assay: MMP9 inhibition experiment; settings: read-out: IC50 value MMP-9; concentration required for 50% inhibition of enzyme activity
Human MMP13 = Human MMP13 (Homo sapiens, UniProt P45452); assay: MMP13 inhibition experiment; settings: read-out: IC50 value MMP-13; concentration required for 50% inhibition of enzyme activity
Human MMP14 = Human MMP14 (Homo sapiens, UniProt P50281); assay: MMP14 inhibition experiment; settings: read-out: IC50 value MMP-14; concentration required for 50% inhibition of enzyme activity
Human MMP17 = Human MMP17 (Homo sapiens, UniProt Q9ULZ9); assay: MMP17 inhibition test; settings: read-out: IC50 value MMP-17; concentration required for 50% inhibition of enzyme activity

SMILES | IC50 (TACE) [nM] | IC50 (Human MMP1) [µM] | IC50 (Human MMP2) [µM] | IC50 (Human MMP3) [µM] | IC50 (Human MMP8) [µM] | IC50 (Human MMP9) [µM] | IC50 (Human MMP13) [µM] | IC50 (Human MMP14) [µM] | IC50 (Human MMP17) [µM]
CCCS(=O)(=O)N1CCC(=CC(CS(=O)(=O)c2ccc(OCc3cc(C)nc4ccccc34)cc2)N(O)C=O)C(C)C1 (centres unmarked) | 2 | 60 | 32 | 1.5 | 73 | 73 | 38 | 74 | 1.2
Cc1ccnc(C(C)(CS(=O)(=O)c2ccc(OCc3cc(C)nc4ccccc34)cc2)N(O)C=O)c1 (centres unmarked) | 8.1 | 82 | > 100 | 8 | > 100 | > 100 | 42 | 62 | 4.2
Cc1cc(COc2ccc(S(=O)(=O)CC(C=C3CCN(C(=O)C(C)(C)C)CC3)N(O)C=O)cc2)c2ccccc2n1 (centres unmarked) [Example I-25, N-{1-[1-(2,2-Dimethylpropionyl)piperidin-4-ylidenemethyl]-2-[4-(2-methylquinolin-4-ylmethoxy)benzenesulfonyl]ethyl}-N-hyroxyformamide] | 3 | 42 | 7 | – | 55 | – | 7 | 30 | –
COc1cc(COc2ccc(S(=O)(=O)CC(CC3CCC(OC)(OC)CC3)N(O)C=O)cc2)cc(C)n1 (centres unmarked) | 230 | > 100 | 1.8 | 2.1 | – | 40 | 2 | 70 | 5
Cc1cc(COc2ccc(S(=O)(=O)CC(N(O)C=O)C3(C)CCN(CC(C)C)CC3)cc2)c2ccccc2n1 (centres unmarked) | 48 | – | – | – | – | – | – | – | –
COc1cc(COc2ccc(S(=O)(=O)CC(C=C3CCOCC3)N(O)C=O)cc2)cc(C)n1 (centres unmarked) | 100 | > 100 | 12 | 43 | – | > 100 | 8 | > 100 | 21
COc1cc(COc2ccc(S(=O)(=O)CC(CC3CCC4(CC3)OCCO4)N(O)C=O)cc2)cc(C)n1 (centres unmarked) | 800 | > 100 | 6 | 6 | – | 43 | 7 | 70 | 13
Cc1cc(COc2ccc(S(=O)(=O)CC(CC3CCOCC3)N(O)C=O)cc2)c2ccccc2n1 (centres unmarked) [Example I-29] | 20 | > 100 | 5 | 1.5 | 30 | 90 | 4 | > 100 | 0.35
Cc1cc(COc2ccc(S(=O)(=O)CC(/C=C3\CCN(CC(C)C)CC3C)N(O)C=O)cc2)c2ccccc2n1 (centres unmarked) | 6.1 | > 100 | 73 | 31 | > 100 | > 100 | > 100 | > 100 | 10
COc1cc(COc2ccc(S(=O)(=O)CC(CC3CCC(=NO)CC3)N(O)C=O)cc2)cc(C)n1 (centres unmarked) | 120 | > 100 | 3.3 | 8 | – | 50 | 3 | 70 | 4
COc1cc(COc2ccc(S(=O)(=O)CC(C=C3CCC4(CC3)OCCO4)N(O)C=O)cc2)cc(C)n1 (centres unmarked) | 310 | > 100 | 21 | 23 | – | 60 | 15 | > 100 | 35
COc1cc(COc2ccc(S(=O)(=O)CC(C=C3CCC(=NO)CC3)N(O)C=O)cc2)cc(C)n1 (centres unmarked) | 70 | > 100 | 9 | 33 | – | 90 | 7 | > 100 | 21
COc1cc(COc2ccc(S(=O)(=O)CC(C=C3CCC(=O)CC3)N(O)C=O)cc2)cc(C)n1 (centres unmarked) | 230 | > 100 | 25 | 40 | – | > 100 | 15 | > 100 | 40
Cc1cc(COc2ccc(S(=O)(=O)CC(CN3CCN(C(=O)OC(C)(C)C)CC3)N(O)C=O)cc2)c2ccccc2n1 (centres unmarked) | 13 | 53 | 1 | 0.06 | 2.6 | 25 | 1.8 | 22 | 0.035
Cc1cc(COc2ccc(S(=O)(=O)CC(/C=C3/CCN(CC(C)C)CC3C)N(O)C=O)cc2)c2ccccc2n1 (centres unmarked) | 6.3 | > 100 | 50 | 17 | – | > 100 | > 100 | > 100 | 6.6
Cc1cc(COc2ccc(S(=O)(=O)CC(CCC=C3CCOCC3)N(O)C=O)cc2)c2ccccc2n1 (centres unmarked) | 6 | > 100 | 32 | 3.1 | 40 | > 100 | 16 | 50 | 3
